Yeast mating assay B: variants of the scFv Ab-14

Binding partner: SARS-CoV-2 spike HR2 peptide, sequence PDVDLGDISGINAS.

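The starting antibody came from a phage panning campaign against this peptide. This is the validation round: designs drawn from the data on random variants, tested in the same kind of assay. Several design methods are mixed in this list. In AlphaSeq, yeast of one mating type display the scFv and yeast of the other type display the target. Pairs that bind mate more often; barcode pairs of the diploids are counted by sequencing. The ratio of observed to expected reads was calibrated, replicate by replicate, on BCL2-family standards whose Kd was known from biolayer interferometry. The assay was run in six technical replicates.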

Parent: Ab-14, a human scFv built as VH, a 15-residue (Gly4Ser)3 linker, VL. Only the CDRs of the light chain vary.
VH: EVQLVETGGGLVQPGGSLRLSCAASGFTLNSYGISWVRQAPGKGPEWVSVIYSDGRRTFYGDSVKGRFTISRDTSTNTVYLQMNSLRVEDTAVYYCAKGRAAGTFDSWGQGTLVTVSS
VL: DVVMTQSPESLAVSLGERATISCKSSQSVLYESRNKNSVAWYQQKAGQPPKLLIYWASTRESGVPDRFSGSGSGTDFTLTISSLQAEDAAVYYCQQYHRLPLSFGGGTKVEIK

Variants are written as CDR1, CDR2 and CDR3 of the light chain (limits as in the source). Parent: KSSQSVLYESRNKNSVA, WASTRES, QQYHRLPLS.
Kd is apparent (estimated from mating counts) and averaged on the log scale over replicates with a signal. Smaller is tighter.
A pair that was not seen in any replicate is written "no signal"; this usually means weak binding, but a binder can also be missed.
The authors averaged sequences with at least three values out of six and counted those with two or fewer as poor binders.
Values of this round are not directly comparable with the first-round values of the same sequences.
Some sequences occur more than once in the pool; their replicates are pooled.
Three control strains display no target. For all light chain designs, 4% of the pairings with them gave a signal, with a median of 430 nM and one signal in twenty below 38 nM, so weak values seen in few replicates may be background.

apparent Kd,seen in,CDR-L1,CDR-L2,CDR-L3
21 nM,6/6,KWSISDLGGDRNKNSVA,HASCREQ,QQYHRLPLS
52 nM,6/6,MISQLYNMGTFAINSVA,QASVRNE,QQYDRLPLQ
930 pM,6/6,TLGGVTSYEMQNKNSVA,QMTTRES,QQYTRLPLS
1.1 nM,6/6,KLQQSQLYESQNWNSVA,NASKRES,QQYHRLPLS
480 pM,6/6,KLSQSWLYESRNKNSVA,GASTRES,QQYHRLPLS
390 pM,6/6,HSSPSGLYESRNKNSVA,NASTRES,QQYHRLPLS
6.5 nM,6/6,KISSLTLYESVQKNNIA,EMSTRPS,QSYHRLPLS
1.8 nM,6/6,KSSQSVFYESLAKNSVA,WASTRES,QQYHRLPLS
25 nM,5/6,TISQMTSLFSQSINNVA,EVSMREE,QQYDRLPLA
2.7 nM,6/6,KLSQSELYESRNKNSVA,EASQREQ,QQYHRLPLS
no signal,0/6,KLRQSTLYESRNKNSVA,WASTRES,QQYHRKPLS
220 nM,6/6,KLSQYVGGESRNKSSLA,DNSTREN,QQYERLPLS
400 pM,6/6,KLMQSVPYESRNKNSVA,EASTRES,QQYHRLPLS
2.1 nM,6/6,KLPQSVEYESRNKNSVA,EASTRES,QQYHRLPLS
50 nM,6/6,MLSQMWALGQKVSNSVA,QASMRFN,QQYHRLPLI
3.2 nM,6/6,KSSPSVLYESGNKNSVA,NASTRMS,QQYHRLPLS
79 nM,1/6,KSSQSVLTASRQKNSVA,HASWRES,QQYHRLPLS
no signal,0/6,KSSQSVLYESRNKNSVA,QAVTRES,QQYGRLPLS
30 nM,5/6,KVSQSVEYERTFKNSVA,WASTRES,QQYHRLPLS
3.1 nM,6/6,KLSGSVLMESRNKNSVA,SADTRLS,QQYHRLPLS
1.9 nM,6/6,KLSGSWLYESRNKNSVA,NASTRES,QQYHRLPLS
9.2 nM,6/6,MIEEGHAGENKNSSNIA,SQDQKTD,QQYQRLPLI
540 pM,6/6,KLSQSVLYESRNKNSVA,EASTRYS,QQYHRLPLS
1.1 nM,6/6,KLGQNVLYESRNKNSVA,DASTRES,QQYHRLPLS
29 nM,6/6,KLSLSLGESKQSERNIA,NMRVSVA,QQYDTLPLT
480 pM,12/12,KMSQSVLYESRNKNSVA,NASTREQ,QQYHRLPLS
1.9 nM,6/6,KSSQSELYESRHKNSVA,NASYRED,QQYHRLPLS
460 pM,6/6,KSSWSQLYESRNKNSVA,DASTRES,QQYHRLPLS
26 nM,6/6,KLSQSVNMTGKNKNSVA,ELTFREK,QQYERLPLS
6.7 nM,6/6,KSSQSVLDISRNKNSVA,GASTRES,QQYHRLPLS
2.1 nM,6/6,KSSQSPLYESRNKNSVA,QASYRES,QQYMRLPLS
no signal,0/6,KSSDSDLYESRNKNSVA,WASTRES,QQYHRLHLS
470 pM,6/6,KLAQSVLYESRNKNSVA,NASTRES,QQYHRLPLS
4.1 nM,6/6,KVSQSHLYESRNDNNVA,QASYRES,QQYHRLPLS
no signal,0/6,KVSQGVLYESRNKNSVA,GASTRES,QQYHRLPLS
1.5 nM,6/6,KLSQSVLYESRNKNSVA,NASYRMS,QQYHRLPLS
4.3 nM,6/6,KLSQSVLYESRWKNSVA,NASTRES,QQYHRLPLS
16 nM,6/6,QINDLDEDSQAEVSQVA,NAAEAIV,QQYQRLPLS
1.7 nM,6/6,KLFGGIPEQERDDYSIA,KGTLREV,QQYQRLPLS
7.0 nM,6/6,KSSQSVLYESRNKNSVA,SASTRES,QQYHHLPLS
40 nM,6/6,MMSQLFMYGSRNYNSVA,QASTRES,QQYDRLPLI
3.3 nM,6/6,KSSQVYLYESRNKNSVA,GASTRES,QQYHRLPLS
4.7 µM,2/6,KSSQAVLYESRNKGSVA,AASTRES,QQYHRLPWS
600 nM,4/6,KSSQNVLYQSRNKNSVA,WASTREN,QQYHRLPLS
2.0 nM,6/6,KLTQSVNYLSRVMNSVA,DNSTRES,QQYFRLPLS
550 pM,6/6,KSMQSWLYESRNKNGVA,NASTRES,QQYHRLPLS
6.8 nM,6/6,KISQLVNFEGKTKNSVA,QMSTRES,QQYDRLPLS
18 nM,6/6,MLSDMVKMGSRNTNSVA,DNSTRGS,QQYDRLPLS
30 nM,6/6,TISGMSNNATSKHNSVA,NVTMRPD,QQYHRLPLS
750 pM,6/6,KLEQSVQMESRNKNSVA,NASTRES,QQYHRLPLS
140 nM,1/6,KLMNSLDAFKQWEDNVA,EVEHKVA,QQYQHLPLT
120 nM,6/6,MISQLYNMGQFAINSVA,QAQVRNE,QQYDRLPLI
10 nM,4/6,KMSISWLYESRNKNSIA,WASTRES,QQYHRLPLS
3.0 nM,6/6,KSSQSVLYESMNKNSVA,NASTRMS,QQYHRLPLS
1.5 nM,6/6,KLSISGMHESIDKKSIA,ERSTREN,QQYHRLPLS
1.8 nM,6/6,KQSQAVLYEQRNKNNVA,EGSTRES,QQYHRLPLS
1.7 nM,6/6,KLWQSELYESRNKNSVA,NASQRES,QQYHRLPLS
7.3 nM,6/6,KSEQSQEYESRNKNSVA,NASTRED,QQYHRLPLS
2.8 nM,6/6,KSSQSVLGEQRNKNSVA,DVSTRES,QQYHRLPLS
680 pM,12/12,KFSQSVLYESRNKNSVA,DASTRES,QQYHRLPLS
3.0 nM,6/6,KVSQSVLGESRNKNSVA,WANTRES,QQYQRLPLS
1.1 µM,4/6,MISQVMNMLTREGNNVA,DLTEREK,QQYFRLPLS
17 nM,6/6,KSSQSVLMESRNANSVA,WASTRES,QQYHRLPLS
11 nM,6/6,KVSEFMRGLMMRKDSIA,DNQTRES,QQYDRLPLS

Extract of 7 entries:

| CDR-L1 | CDR-L2 | CDR-L3 | apparent Kd | seen in |
|---|---|---|---|---|
| KLMNSLDAFKQWEDNVA | EVEHKVA | QQYQHLPLT | 140 nM | 1/6 |
| TISGMSNNATSKHNSVA | NVTMRPD | QQYHRLPLS | 30 nM | 6/6 |
| KSSQVYLYESRNKNSVA | GASTRES | QQYHRLPLS | 3.3 nM | 6/6 |
| KLSQSVLYESRNKNSVA | EASTRYS | QQYHRLPLS | 540 pM | 6/6 |
| KVSQSHLYESRNDNNVA | QASYRES | QQYHRLPLS | 4.1 nM | 6/6 |
| MLSQMWALGQKVSNSVA | QASMRFN | QQYHRLPLI | 50 nM | 6/6 |
| KSSQSVLGEQRNKNSVA | DVSTRES | QQYHRLPLS | 2.8 nM | 6/6 |

Values reported by Li et al. 2023, doi:10.1038/s41467-023-39022-2 (FLAb copy).